Results on three compounds are retold here after ChEMBL document CHEMBL2321659, “Design, synthesis, and biological evaluation of indenoisoquinoline rexinoids with chemopreventive potential” (J Med Chem, 2013).

For assay [1], the target named is T1, Vitamin D3 receptor (Homo sapiens) (UniProt P11473).
T1 sequence (whole entry): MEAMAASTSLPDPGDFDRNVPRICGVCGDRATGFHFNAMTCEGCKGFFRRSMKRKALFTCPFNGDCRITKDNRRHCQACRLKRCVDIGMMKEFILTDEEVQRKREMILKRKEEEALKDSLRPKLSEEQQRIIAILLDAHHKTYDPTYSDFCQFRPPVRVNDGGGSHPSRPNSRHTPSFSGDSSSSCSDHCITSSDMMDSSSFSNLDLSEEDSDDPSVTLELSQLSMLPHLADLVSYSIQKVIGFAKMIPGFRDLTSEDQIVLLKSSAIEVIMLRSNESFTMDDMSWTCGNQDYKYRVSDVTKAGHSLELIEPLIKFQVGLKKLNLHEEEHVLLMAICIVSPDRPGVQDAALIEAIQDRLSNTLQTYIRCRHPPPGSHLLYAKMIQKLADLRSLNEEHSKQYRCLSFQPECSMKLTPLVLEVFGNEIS
Description: Binding affinity to VDR (unknown origin) after 30 mins by ultrafiltration LC-MS/MS analysis relative to 6-(6-aminohexyl)-5H-indeno[1,2-c]isoquinoline-5,11(6H)-dione. On the set-up: Activity: concentration or dose not given beside the values. The method, boiled down: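 Recombinant VDR incubated with ligand in 20 µL for 30 min at 37 °C in the dark with shaking. Then ultrafiltration at 4 °C and rinses with cold 50 mM ammonium acetate/0.1 mM NaCl pH 8.0. Bound ligand released with methanol containing genistein, dried under N2 and quantified by LC-MS. Controls were boiled hVDR or no protein.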

The target of assay [2] is T2, Retinoic acid receptor RXR-alpha (Homo sapiens) (UniProt P19793).
T2 sequence (whole entry): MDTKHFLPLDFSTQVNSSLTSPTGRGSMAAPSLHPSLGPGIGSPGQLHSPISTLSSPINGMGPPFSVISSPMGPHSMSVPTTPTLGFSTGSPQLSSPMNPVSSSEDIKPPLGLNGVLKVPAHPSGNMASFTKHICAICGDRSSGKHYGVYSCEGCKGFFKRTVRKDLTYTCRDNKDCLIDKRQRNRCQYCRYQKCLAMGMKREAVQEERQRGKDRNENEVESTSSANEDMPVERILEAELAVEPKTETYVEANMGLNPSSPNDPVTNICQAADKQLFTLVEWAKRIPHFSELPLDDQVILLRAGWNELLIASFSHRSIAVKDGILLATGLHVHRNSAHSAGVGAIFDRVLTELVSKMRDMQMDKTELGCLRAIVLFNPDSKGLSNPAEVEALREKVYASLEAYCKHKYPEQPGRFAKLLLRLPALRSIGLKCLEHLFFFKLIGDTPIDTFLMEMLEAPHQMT
Description: Binding affinity to RXRalpha (unknown origin) at 10 uM after 2 hrs by ultrafiltration LC-MS/MS analysis relative to control. The method, boiled down:
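Purified RXRα (10 µM stock in 50 mM Tris-HCl pH 7.5, 50 mM KCl, 1 mM EDTA) incubated with ligand (final 10 µM, DMSO) for 2 h at room temperature. Then 10 kDa ultrafiltration at 4 °C, three ammonium acetate pH 7.5 washes, release with 90% methanol, UHPLC-MS/MS (SRM). Binding ratio is peak area versus denatured-RXRα (60–70 °C, 15 min) control.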

For assay [3], the target named is T2, Retinoic acid receptor RXR-alpha (Homo sapiens). In words: Activation of human RXRalpha activity expressed in COS1 cells assessed as induction ratio at 50 uM after 12 hrs by RXRE-luciferase reporter gene assay relative to untreated control. The class given is cell-based. The note with it: COS-1. In a few lines:
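COS-1 cells transiently co-transfected per well with 100 ng RXRE-firefly luciferase reporter, 50 ng human RXRα expression vector and 3 ng Renilla luciferase vector using Lipofectamine 2000 for 24 h, then exposed to compound for a further 12 h. Dual-luciferase read-out. Induction ratio taken at 50 µM test concentration.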
A general note: Reporter assays use an easily measured gene product as a stand-in for the process of interest.

`NCCCn1c2c(c3ccc(N)cc3c1=O)C(=O)c1ccccc1-2` gave an Activity in assay [1] of 17.3%. Moreover, the fold change (FC) in assay [1] was found to be 0.173; in assay [2], 1.9. The Ratio in assay [3] is above 1.
As to `CC(=O)Nc1ccc2c3c(n(CCCN)c(=O)c2c1)-c1ccccc1C3=O`, in assay [1], the Activity came to 50.7% and the fold change (FC) was 0.507. The Ratio in assay [3] is above 1.
In the case of `CC(=O)NCCCn1c2c(c3ccc(N)cc3c1=O)C(=O)c1ccccc1-2`, the Ratio in assay [3] was above 1.
